{"source": "patent US20230310539A1", "about": "“TREATMENT OF DISEASE WITH EPOR ANTAGONIST” (Epo-Med Inc., priority 2020, published 2023)", "system": "BT-474-R cells", "experiment": "WST assay, Herceptin resistant breast cancer cell growth", "format": "cell-based, human", "details": "single agent, five days; ERA-350 3-100 μM, trastuzumab 0.001-100 μg/mL", "method": "The test used herceptin resistant breast cancer BT-474-R cells (provided by Dr. Kanzaki at the Okayama University) that were passaged (twice/week) under the conditions of 37° C. and 5% CO2-95% air by using D-MEM medium (Sigma, D6046-500 ML) containing 10% fetal bovine serum (biowest, S182-H-500).\nBT-474-R cells were seeded on a 96-well plate at 5×10^3 cells/well. ERA-350 (3, 10, 30, 50, or 100 μM), trastuzumab (Selleck Chemicals, A^2007) (0.001, 0.01, 0.1, 1, 10, or 100 μg/mL), or a combination thereof was added, and the cells were cultured for five days. The cell proliferation capability for each well was then measured by a WST assay (DOJINDO LABORATORIES, Cell Counting Kit-8), and the inhibition percentage for each test compound relative to the control (well without test compound) was calculated.", "data": [{"substance": "trastuzumab", "values": [{"measurement": "Proliferation inhibitory action on BT-474-R cells (inhibition percentage relative to control)", "value": "modest inhibitory action"}]}]}
